In this experiment the test system is cells. The experiment in a line: Internalization by flow cytometry with surface quench by anti-Alexa Fluor 488 antibody. It counts as cell-based. As to conditions: labeled antibody 30 μg/mL, 1 hour room temperature and 3 hours 37° C., FIG. 13B. As to the method:
Analysis was performed on an isotype control (whole human IgG was used as a negative control), cetuximab (Cetuximab), the 402 human-mouse chimeric antibody (Chimeric 402), the 430 human-mouse chimeric antibody (Chimeric 430) and the 4B9b human-mouse chimeric antibody (Chimeric 4B9b), each being labeled with Alexa Fluor 488. These antibodies were analyzed for their internalization by flow cytometry using cells treated in two ways.
For the first way, the following operations were performed. Cells detached from culture dishes were suspended in staining buffer [PBS(−)-3% fetal bovine serum]. […] After being further rotated with a rotator at 37° C. for 3 hours, the cells were washed three times with the staining buffer and then measured for fluorescence signals by flow cytometry (FIG. 13B; isotype control, chimeric antibody).
The second way is to confirm that the fluorescence in the cells obtained in the first way arises from the dye conjugated to the antibody taken up into the cells. The cells obtained in the first way were reacted at 4° C. for 1 hour with an antibody binding to Alexa Fluor 488 and thereby quenching its fluorescence (anti-Alexa Fluor 488, rabbit IgG antibody fraction: anti-Alexa Fluor 488 antibody) at a final concentration of 50 μg/mL to observe changes in fluorescence intensity (FIG. 13B; surface quench). […]

Consider one substance from patent publication US10214584B2, “Therapeutic pharmaceutical composition employing anti-SLC6A6 antibody” (ORDER-MADE MEDICAL RESEARCH INC., priority 2014, dated 2019).

Take “cetuximab: anti-EGFR antibody [reference compound]”: the “fluorescence upon addition of the anti-Alexa Fluor 488 antibody (surface quench)” value is on record as “partially disappeared”.
